Biological target: Nicotinic acetylcholine receptor alpha-4/beta-2 (Mus musculus) (UniProt Q9ERK7+Q8R493)
Assay: Activity at alpha4beta2*nAChR in mouse striatal synaptosomes assessed as alpha-conotoxic MII-resistant DA release relative to control
Assay type: subcellular
Settings: Brain

Amino acid sequences for entries named in this document (tags omitted). A change or cut given only in a name is not applied to a line headed by its entry.
UniProt Q8R493: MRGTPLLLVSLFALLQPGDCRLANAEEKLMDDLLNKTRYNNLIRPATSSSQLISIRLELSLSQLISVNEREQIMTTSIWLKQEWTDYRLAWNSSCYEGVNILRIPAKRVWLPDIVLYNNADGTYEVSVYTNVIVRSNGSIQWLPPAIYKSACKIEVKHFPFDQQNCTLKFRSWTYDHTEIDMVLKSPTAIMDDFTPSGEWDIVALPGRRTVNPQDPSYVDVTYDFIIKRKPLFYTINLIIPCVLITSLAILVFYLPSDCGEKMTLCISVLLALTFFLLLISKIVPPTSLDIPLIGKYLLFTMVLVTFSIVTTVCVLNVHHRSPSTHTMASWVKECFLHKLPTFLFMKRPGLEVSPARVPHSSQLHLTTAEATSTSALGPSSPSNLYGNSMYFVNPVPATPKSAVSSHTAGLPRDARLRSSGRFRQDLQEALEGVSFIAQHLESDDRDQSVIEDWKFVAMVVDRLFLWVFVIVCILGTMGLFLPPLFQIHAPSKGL

## c1cncc(CC2CC3CCN2CC3)c1 (stereo unspecified)
  Imax: 98%

Source: ChEMBL document CHEMBL1782028, “Evaluation of structurally diverse neuronal nicotinic receptor ligands for selectivity at the alpha6( *) subtype” (Bioorg Med Chem Lett, 2009)
